# Laboratory results as given in PubChem BioAssay AID2025 (NMMLSC, 2009).
# The entries are a selection whose mix differs from that of the whole data set. Some tests of the compounds listed are not included; inactive here does not mean inactive elsewhere. Active and inactive are the calls of the source.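 Rule for the calls: active = percent response vs DMSO below 50%; inconclusive = fewer than 70 events counted for the yeast strain; inactive = the rest.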
# Experiment: RPL19A-GFP expression modulators in yeast, primary screen, cell-based, S. cerevisiae, multiplex flow cytometry, MLPCN (AID 2025);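 note: median channel GFP fluorescence of the barcoded RPL19A-GFP strain; ratio of sample median GFP to plate DMSO average so 100% = DMSO; lower means less RPL19A-GFP as with rapamycin TOR inhibition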
# Details: S. cerevisiae RPL19A-GFP strain, 3 h, at 10 µM, active compounds read low
row,Compound,percent response vs DMSO
1,CCN(CC)CC(C)C(C)OC(=O)C(O)(c1ccccc1)c1ccccc1 (centres undefined),inactive: 96.9%
2,COc1cc(SC)ccc1C(=O)NCC1(N(C)C)CCCCC1,inactive: 92.2%
3,CC(C)N1C(=O)CC2(CCN(CCOC(=O)C(O)(c3ccccc3)c3ccccc3)CC2)C1=O,inactive: 96.3%
4,Cc1ccc(C(=O)NCC2(N3CCCCC3)CCCCC2)cc1,inactive: 104%
5,O=C(NCC1(N2CCCCC2)CCCCC1)c1cc([N+](=O)[O-])ccc1Cl,inactive: 95.5%
6,CN1[C@@H]2CC[C@H]1CC(OC(=O)C(O)(c1ccccc1)c1ccccc1)C2 (some centres undefined),inactive: 101%
7,C=CCN1CCN(CCOC(=O)C(O)(c2ccccc2)c2ccccc2)CC1,inactive: 98.4%
8,O=C(NCC1(N2CCCCC2)CCCCC1)c1cc(F)c(F)cc1Cl,inactive: 99.8%
9,COc1ccc(C(=O)NCC2(N(C)C)CCCCC2)cc1,inactive: 101%
10,Cc1cc(C(=O)NCC2(N3CCCCC3)CCCCC2)ccc1[N+](=O)[O-],inactive: 55%
11,CCN1CCCC(OC(=O)C2(O)c3ccccc3C=Cc3ccccc32)C1 (centres undefined),inactive: 99.8%
12,O=C(NCC1(N2CCCCC2)CCCCC1)c1cccc(Br)c1,inactive: 107%
13,Cc1ccccc1C(=O)NCC1(N2CCCCC2)CCCCC1,inactive: 99.6%
14,CN(C)C1CCCC1OC(=O)C(O)(c1ccccc1)c1ccccc1 (centres undefined),inactive: 110%
15,CN(C)c1ccc(C(=O)NCC2(N(C)C)CCCCC2)cc1,inactive: 106%
16,COc1cccc(C(=O)NCC2(N3CCCCC3)CCCCC2)c1,inactive: 101%
17,COc1ccc(Cl)cc1C(=O)NCC1(N(C)C)CCCCC1,inactive: 102%
18,O=C(NCC1(N2CCCCC2)CCCCC1)c1cccc(Cl)c1,inactive: 104%
19,CN(C)C1(CNC(=O)c2ccc(Br)cc2)CCCCC1,inactive: 106%
20,COc1cc(C(=O)NCC2(N(C)C)CCCCC2)c([N+](=O)[O-])cc1OC,inactive: 96.8%
21,COc1ccc(Br)c(C(=O)NCC2(N3CCCCC3)CCCCC2)c1,inactive: 108%
22,CC(C)Oc1ccc(C(=O)NCC2(N(C)C)CCCCC2)cc1,inactive: 101%
23,CN(C)c1cccc(C(=O)NCC2(N(C)C)CCCCC2)c1,inactive: 99.9%
24,O=C(OC1CN2CCC1CC2)C(CO)(c1ccccc1)c1ccccc1 (centres undefined),inactive: 101%
